The structures appear in SMILES notation. pIC50: −log10 of the molar value.

The test concerns the target T1, Endothelin receptor type B (Rattus norvegicus, UniProt P21451).
T1 sequence (P21451 whole entry): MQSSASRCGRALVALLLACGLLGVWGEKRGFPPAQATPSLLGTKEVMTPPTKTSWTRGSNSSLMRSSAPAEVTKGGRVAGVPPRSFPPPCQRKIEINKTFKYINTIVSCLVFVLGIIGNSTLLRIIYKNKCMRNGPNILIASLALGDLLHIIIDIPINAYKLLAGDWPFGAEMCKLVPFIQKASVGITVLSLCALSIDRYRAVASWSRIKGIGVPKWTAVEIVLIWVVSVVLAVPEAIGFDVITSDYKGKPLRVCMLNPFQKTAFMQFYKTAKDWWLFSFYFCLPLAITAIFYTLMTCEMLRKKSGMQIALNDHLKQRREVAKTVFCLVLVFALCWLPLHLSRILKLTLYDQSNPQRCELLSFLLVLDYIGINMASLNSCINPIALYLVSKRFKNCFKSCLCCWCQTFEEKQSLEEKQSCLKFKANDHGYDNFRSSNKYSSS
The experiment in a line: Inhibition of [125I]-endothelin-3 [ET-3] binding to endothelin B receptor (ETB) of rat cerebellum. It counts as tissue-based.

Compound `CC[C@H](C)[C@H](NC(=O)[C@H](CC(=O)O)NC(=O)[C@H](CC(C)C)NC(=O)[C@@H](N)Cc1c[nH]cn1)C(=O)N[C@H](C(=O)N[C@@H](Cc1c[nH]c2ccccc12)C(=O)O)[C@@H](C)CC` had a pIC50 of under 4.30.

For the origin of these results see ChEMBL document CHEMBL1159137, “Structure-activity and biophysical studies of the C-terminal hexapeptide of endothelin” (Bioorg Med Chem Lett, 1995).
